Data published in ChEMBL document CHEMBL1130119, “2-Carbomethoxy-3-aryl-8-oxabicyclo[3.2.1]octanes: potent non-nitrogen inhibitors of monoamine transporters” (J Med Chem, 1997).

Chains of the proteins cited; added tags and fusions are not shown.
UniProt P31645, whole entry, looked up: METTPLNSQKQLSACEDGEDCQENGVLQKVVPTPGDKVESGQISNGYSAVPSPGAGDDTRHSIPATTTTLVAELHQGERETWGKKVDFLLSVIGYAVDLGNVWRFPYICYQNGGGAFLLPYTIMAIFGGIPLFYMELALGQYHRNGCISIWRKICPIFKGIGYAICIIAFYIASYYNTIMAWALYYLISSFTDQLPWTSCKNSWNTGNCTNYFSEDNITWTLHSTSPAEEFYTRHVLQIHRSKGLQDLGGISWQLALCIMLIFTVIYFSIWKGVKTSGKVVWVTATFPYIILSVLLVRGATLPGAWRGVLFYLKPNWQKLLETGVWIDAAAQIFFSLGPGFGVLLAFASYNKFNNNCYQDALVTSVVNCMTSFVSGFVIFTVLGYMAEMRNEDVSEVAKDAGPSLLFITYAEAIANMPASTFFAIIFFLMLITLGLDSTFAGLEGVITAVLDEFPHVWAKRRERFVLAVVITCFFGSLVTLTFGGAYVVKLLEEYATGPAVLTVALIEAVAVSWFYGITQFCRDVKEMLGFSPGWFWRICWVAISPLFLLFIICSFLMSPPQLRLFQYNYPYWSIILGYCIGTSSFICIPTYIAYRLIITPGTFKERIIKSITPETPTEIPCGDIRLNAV
UniProt Q01959, whole entry, looked up: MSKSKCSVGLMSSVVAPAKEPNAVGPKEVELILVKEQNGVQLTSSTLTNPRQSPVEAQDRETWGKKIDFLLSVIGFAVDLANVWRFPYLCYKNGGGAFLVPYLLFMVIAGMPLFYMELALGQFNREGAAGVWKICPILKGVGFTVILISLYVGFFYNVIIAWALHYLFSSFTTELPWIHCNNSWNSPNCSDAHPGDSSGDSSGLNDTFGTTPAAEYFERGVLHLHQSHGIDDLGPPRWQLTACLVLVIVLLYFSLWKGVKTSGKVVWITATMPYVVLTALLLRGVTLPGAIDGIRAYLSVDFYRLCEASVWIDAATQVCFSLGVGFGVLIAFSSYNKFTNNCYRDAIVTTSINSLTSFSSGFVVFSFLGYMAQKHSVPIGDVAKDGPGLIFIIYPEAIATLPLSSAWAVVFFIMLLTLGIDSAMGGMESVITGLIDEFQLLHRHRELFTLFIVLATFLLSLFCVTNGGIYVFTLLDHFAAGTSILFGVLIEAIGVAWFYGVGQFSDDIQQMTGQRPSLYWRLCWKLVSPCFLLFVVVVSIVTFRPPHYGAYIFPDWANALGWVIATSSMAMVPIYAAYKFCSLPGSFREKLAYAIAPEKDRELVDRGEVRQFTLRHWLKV

Biological target: Monoamine transporters; serotonin & dopamine (Homo sapiens) (UniProt P31645+Q01959)
Test: Selectivity ratio measured as the IC50 ratio of DAT receptor to that of 5-HT receptor/
Assay type: protein assay

| Compound | Selectivity ratio |
| --- | --- |
| COC(=O)[C@@H]1C2CC[C@H](C[C@@H]1c1ccccc1)N2C (stereo in doubt; 18a) | 87 |
| COC(=O)[C@@H]1C2CC[C@H](C[C@@H]1c1ccccc1)N2C (stereo in doubt; 19a) | 57 |
